Data as given in PubChem BioAssay AID504734 (The Scripps Research Institute Molecular Screening Center, 2011).
This is a selection; strong and weak results do not stand in their true shares. Activity calls are given as the source filed them.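 The calls were made as follows: active = inhibition above the mean over all tested compounds plus 3 SD (cut at about 21% in these data); inactive = the rest.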

Amino acid sequences for entries named in this document (tags omitted). A change or cut given only in a name is not applied to a line headed by its entry.
UniProt Q9NR96: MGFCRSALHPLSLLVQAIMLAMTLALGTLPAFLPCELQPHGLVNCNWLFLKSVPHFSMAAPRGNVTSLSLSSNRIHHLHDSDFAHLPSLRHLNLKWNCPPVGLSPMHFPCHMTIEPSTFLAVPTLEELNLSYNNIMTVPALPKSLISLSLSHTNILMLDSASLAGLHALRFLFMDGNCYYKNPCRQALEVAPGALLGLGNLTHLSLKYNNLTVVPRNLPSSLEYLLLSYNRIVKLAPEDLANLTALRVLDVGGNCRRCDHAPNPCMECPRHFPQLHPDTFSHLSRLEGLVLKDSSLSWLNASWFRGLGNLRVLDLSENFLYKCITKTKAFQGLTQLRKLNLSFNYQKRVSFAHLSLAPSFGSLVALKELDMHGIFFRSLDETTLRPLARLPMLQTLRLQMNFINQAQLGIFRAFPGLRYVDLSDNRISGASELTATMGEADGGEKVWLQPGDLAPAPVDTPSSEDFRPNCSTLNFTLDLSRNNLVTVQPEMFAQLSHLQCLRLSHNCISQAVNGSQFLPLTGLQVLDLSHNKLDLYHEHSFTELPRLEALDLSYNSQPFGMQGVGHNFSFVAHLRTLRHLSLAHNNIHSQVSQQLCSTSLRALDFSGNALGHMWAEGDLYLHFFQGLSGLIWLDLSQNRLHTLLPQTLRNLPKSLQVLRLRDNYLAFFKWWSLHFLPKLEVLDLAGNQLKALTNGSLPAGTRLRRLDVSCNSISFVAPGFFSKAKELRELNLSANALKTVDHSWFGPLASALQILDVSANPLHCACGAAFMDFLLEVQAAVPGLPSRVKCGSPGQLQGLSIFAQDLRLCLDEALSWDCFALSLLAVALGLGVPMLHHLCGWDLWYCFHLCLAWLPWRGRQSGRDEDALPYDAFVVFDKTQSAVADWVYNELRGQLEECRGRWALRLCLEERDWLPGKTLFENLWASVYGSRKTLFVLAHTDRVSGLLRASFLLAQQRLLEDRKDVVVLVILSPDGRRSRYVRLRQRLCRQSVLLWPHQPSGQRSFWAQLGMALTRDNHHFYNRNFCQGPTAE
UniProt Q99836, whole entry, looked up: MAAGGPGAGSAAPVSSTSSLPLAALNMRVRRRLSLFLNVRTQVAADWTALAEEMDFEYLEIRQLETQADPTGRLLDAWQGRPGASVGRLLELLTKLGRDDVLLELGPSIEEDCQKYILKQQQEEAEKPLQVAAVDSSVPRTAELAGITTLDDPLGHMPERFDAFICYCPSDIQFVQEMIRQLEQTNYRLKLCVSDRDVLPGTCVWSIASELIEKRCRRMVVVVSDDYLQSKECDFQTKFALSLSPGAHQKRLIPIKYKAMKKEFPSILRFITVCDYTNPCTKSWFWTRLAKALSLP

Biological target: Toll-like receptor 9 (Homo sapiens) + Myeloid differentiation primary response protein MyD88 (Homo sapiens) (UniProt Q9NR96+Q99836)
Assay: inhibitors of TLR9-MyD88 association in cells, primary screen, cell-based, CHO, BLA complementation, fluorescence (AID 504734);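 also: 0% = DMSO only wells and 100% = clavulanate BLA inhibitor control wells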
Conditions: CHO BLA complementation TLR9-MyD88, CCF4 FRET ratio; at 4.98 µM; stronger effect = higher value

SMILES | inhibition
CCc1cc(O)c([N+](=O)[O-])c(C)c1[N+](=O)[O-] | inactive: 11%
CCOc1ccc(C2=NCC(CBr)S2)cc1 (stereo not drawn) | inactive: 6.36%
O=P1(Nc2nc3ccc(Cl)cc3s2)COc2ccccc2O1 (stereo not drawn) | inactive: -0.49%
CC(=O)Nc1ccc(Oc2c([N+](=O)[O-])cc([N+](=O)[O-])cc2[N+](=O)[O-])cc1 | inactive: 10.7%
CC(=O)Nc1ccc([As](=O)(O)O)c(O)c1 | inactive: 3.96%
C[C@H]1OP(=O)(Oc2ccccc2)C[C@@H]2O[C@@H]21 (stereo partly drawn) | inactive: -5.27%
C[C@@H]1C=CCP(=O)(Oc2ccccc2)O1 (stereo partly drawn) | inactive: -5.12%
Cc1ccccc1CN(C)C(=O)COC(=O)C(O)(c1ccccc1)c1ccccc1 | inactive: -11.3%
COC(=O)C1(C)COP(=O)(NCc2ccccc2)OC1 (stereo not drawn) | inactive: -9.49%
CC(=O)c1ccc(N2CC2c2ccncc2)cc1 (stereo not drawn) | inactive: -8.67%
N#C/C(=C\c1ccc(N(CCBr)CCBr)cc1)C(N)=O | inactive: -9.78%
O=P1(N(CCCl)CCCl)OCCC2CCCCN21 (stereo not drawn) | inactive: 1.57%
O=C(NC1CCS(=O)(=O)C1)NP(=S)(Oc1ccccc1)Oc1ccccc1 (stereo not drawn) | inactive: 4.29%
CCNC(=S)/N=C(\N)N[N+](=O)[O-] | inactive: 0.99%
O=c1c2cc([N+](=O)[O-])ccc2[nH]c2c([N+](=O)[O-])cc([N+](=O)[O-])cc12 | inactive: -9.27%
CN(C)C(=O)Oc1noc2ccccc12 | inactive: 1.63%
CC(NC(=O)COC(=O)C(O)(c1ccccc1)c1ccccc1)c1ccccc1 (stereo not drawn) | inactive: -10.5%
Cc1ccccc1OP(=O)(Nc1ccccn1)Oc1ccccc1C | inactive: -8.69%
CCC(=O)N1C2C3N(C(=O)CC)C1C1N(C(=O)CC)C(C(N1C(=O)CC)N3C(=O)CC)N2C(=O)CC | inactive: 8.97%

SMILES | inhibition
O=C(OC1CN2CCC1CC2)c1ccccc1 (stereo not drawn) | inactive: 1.55%
CC(=O)NC(SC(=S)N(CC(C)C)CC(C)C)C(Cl)(Cl)Cl (stereo not drawn) | inactive: -1.09%
Cc1ccc(OP(=O)(Nc2ccccn2)Oc2ccc(C)cc2)cc1 | inactive: 3.77%
COC(=O)c1cc2c(s1)N=C(c1ccccc1)N(C)P2(=O)N1CCOCC1 (stereo not drawn) | inactive: -6.23%
C[C@H]1OP(=O)(Oc2ccccc2)[C@H](O)[C@H](O)[C@H]1N=[N+]=[N-] (stereo partly drawn) | inactive: -3.16%
O=P(Nc1nc2ccccc2s1)(c1ccccc1)c1ccccc1 | inactive: 6.36%
CN(C)C1(CNC(=O)c2ccc(Cl)c(S(N)(=O)=O)c2)CCCCC1 | inactive: -2.46%
O=P(Nc1ccccn1)(c1ccc(Br)cc1)c1ccc(Br)cc1 | inactive: -9.65%
COc1ccc(N)c([N+](=O)[O-])c1[N+](=O)[O-] | inactive: -5.63%
O=C(OC1CN2CCC1CC2)c1cccc(Cl)c1 (stereo not drawn) | inactive: -0.3%
C(Cc1nn[nH]n1)Cc1nn[nH]n1 | inactive: -11.1%
Nc1ccc([As](=O)(O)c2ccc([N+](=O)[O-])cc2)cc1 | inactive: -7.18%
O=[As](O)(c1ccccc1)c1ccc(O)cc1 | inactive: 9.37%
CC(=O)NC(SC(=S)N(C)C)C(Cl)(Cl)Cl (stereo not drawn) | inactive: 2.7%
O=[N+]([O-])c1ncn(CCn2cnc([N+](=O)[O-])n2)n1 | inactive: 7.21%
O=[N+]([O-])c1ccc(O)c(/C=N/Nc2ccc([N+](=O)[O-])cc2[N+](=O)[O-])c1 | inactive: -8.82%
c1nnnn1CCn1cnnn1 | inactive: -6.16%
O=P(Nc1nccs1)(c1ccccc1)c1ccccc1 | inactive: 1.78%
CC(C)C(=O)NC(Sc1ccccc1)C(Cl)(Cl)Cl (stereo not drawn) | inactive: -3.88%
